From patent publication US12358915B2, “METTL3 inhibitory compounds” (STORM THERAPEUTICS LTD., priority 2019, dated 2025)

By UniProt entry, the sequences of proteins in these tests, tags left out.
UniProt Q86U44, whole entry: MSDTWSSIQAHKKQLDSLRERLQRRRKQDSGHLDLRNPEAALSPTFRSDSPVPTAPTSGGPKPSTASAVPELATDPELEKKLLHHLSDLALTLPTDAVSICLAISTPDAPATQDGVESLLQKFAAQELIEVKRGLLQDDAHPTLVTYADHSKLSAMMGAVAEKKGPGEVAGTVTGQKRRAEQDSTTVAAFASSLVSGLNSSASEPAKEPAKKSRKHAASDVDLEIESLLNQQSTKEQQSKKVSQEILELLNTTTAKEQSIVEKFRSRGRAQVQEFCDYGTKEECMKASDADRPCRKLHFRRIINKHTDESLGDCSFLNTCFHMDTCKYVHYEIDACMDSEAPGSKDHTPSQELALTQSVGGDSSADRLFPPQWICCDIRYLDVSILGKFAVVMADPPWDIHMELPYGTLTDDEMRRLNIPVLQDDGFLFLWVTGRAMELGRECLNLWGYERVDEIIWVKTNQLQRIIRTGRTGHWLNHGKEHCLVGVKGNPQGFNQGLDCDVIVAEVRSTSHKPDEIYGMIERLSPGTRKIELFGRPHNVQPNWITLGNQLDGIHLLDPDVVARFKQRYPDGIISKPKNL
UniProt Q9HCE5, whole entry partner: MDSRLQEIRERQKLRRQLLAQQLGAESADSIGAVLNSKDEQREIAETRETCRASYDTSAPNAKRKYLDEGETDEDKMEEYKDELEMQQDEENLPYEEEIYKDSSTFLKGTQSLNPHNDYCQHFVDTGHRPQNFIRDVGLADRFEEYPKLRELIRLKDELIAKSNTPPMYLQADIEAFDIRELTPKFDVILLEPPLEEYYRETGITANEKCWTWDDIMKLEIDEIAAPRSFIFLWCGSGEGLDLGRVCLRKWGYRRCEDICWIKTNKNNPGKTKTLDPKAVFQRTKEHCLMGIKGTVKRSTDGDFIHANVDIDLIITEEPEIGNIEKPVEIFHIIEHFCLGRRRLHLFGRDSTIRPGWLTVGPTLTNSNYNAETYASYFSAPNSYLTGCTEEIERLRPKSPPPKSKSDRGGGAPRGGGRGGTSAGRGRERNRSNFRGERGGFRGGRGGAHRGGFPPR

Molecular target: METTL3/14 (Homo sapiens, UniProt Q86U44)
Assay: METTL3/14 methyltransferase assay (METTL3_14 RFMS, RapidFire mass spectrometry);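 also: recombinant His-tagged METTL3 with FLAG-tagged METTL14 from baculovirus, SAH product quantified by mass spectrometry against isotope-labelled internal standards, 60 min at room temperature, scaled between no-RNA and DMSO-only wells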
Type: biochemical
Details: read-out: METTL3_14 RFMS IC50; 5 nM METTL3/14, 0.2 μM RNA substrate, 0.5 μM SAM; lower limit of the assay IC50=5 nM; Compounds 63-265

Work on `O=C(NCc1cn2cc(CNC3CCCCC3)ccc2n1)c1cc(=O)c2ccccc2o1` yielded an IC50 of 68 nM.
